Where a name gives a salt, the structure may show the parent alone.
Target: GII Pol (Norovirus Hu/GII.4/Sydney/NSW0514/2012/AU, UniProt K4L8Z7)
Assay type: biochemical

## Cc1nc(/N=N/c2cc(S(=O)(=O)O)c3cc([N+](=O)[O-])cc(S(=O)(=O)O)c3c2)c(COP(=O)(O)O)c(C=O)c1O [PPNDS, pyridoxal‐5′‐phosphate‐6‐(2′‐naphthylazo‐6′‐nitro‐4′,8′‐disulfonate) tetrasodium salt]
  fold more effective against GII Pol than GII ProPol: ~ 7 fold

Reference: paper PMC11575396, “Activity and cryo-EM structure of the polymerase domain of the human norovirus ProPol precursor” (Journal of Virology, 2024)
